In patent US20200109194A1 one finds cell killing (CellTiter Glo, 72 hours) data, which are given here for one substance.

By UniProt entry, the sequences of proteins in these tests, tags left out. Residues count along the entry.
UniProt Q8IYR6, 40-380: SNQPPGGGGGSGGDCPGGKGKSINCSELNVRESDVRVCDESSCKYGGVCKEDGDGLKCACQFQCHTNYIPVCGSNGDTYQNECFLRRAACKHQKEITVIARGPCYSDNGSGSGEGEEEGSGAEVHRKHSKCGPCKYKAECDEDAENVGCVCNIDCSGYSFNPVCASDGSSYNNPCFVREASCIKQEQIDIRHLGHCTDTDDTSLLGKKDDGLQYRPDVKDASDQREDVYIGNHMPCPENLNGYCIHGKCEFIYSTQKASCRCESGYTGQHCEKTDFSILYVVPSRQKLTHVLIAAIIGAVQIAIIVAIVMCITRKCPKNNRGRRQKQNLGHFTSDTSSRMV

This test addresses full-length human TMEFF1 (M1-V380 plus Myc-DDK, plasmid BBP156) on the surface of HEK-293 cells (human) (UniProt Q8IYR6). Kind of test: cell-based or functional assay.

For the substance M3 conjugated to vcMMAE (antibody), the cell killing (CellTiter Glo, 72 hours) came out at 40%.
